Experimental data from paper PMC7173943.

Legend:
HA-CXCR4(D20R)-Rluc3 = HA-CXCR4(D20R)-Rluc3 (UniProt P61073)
HA-CXCR4(E26R)-Rluc3 = HA-CXCR4(E26R)-Rluc3 (UniProt P61073)
HA-CXCR4-Rluc3 (WT) = HA-CXCR4-Rluc3 (WT) (UniProt P61073)

β-arrestin-2 recruitment to HA-CXCR4-Rluc3 (BRET2, HEK293T cells), pEC50 (HA-CXCR4(D20R)-Rluc3): 6.79 -log10(EC50) | β-arrestin-2 recruitment to HA-CXCR4-Rluc3 (BRET2, HEK293T cells), pEC50 (HA-CXCR4(E26R)-Rluc3): 6.68 -log10(EC50) | β-arrestin-2 recruitment to HA-CXCR4-Rluc3 (BRET2, HEK293T cells), pEC50 (HA-CXCR4-Rluc3 (WT)): 7.4 -log10(EC50)
Substance: human CXCL12α (residues 22–89), recombinant (from UniProt P48061-2 22-89) (ligand)
